Data published in US6693208B2, “Compounds and compositions for delivering active agents” (Emisphere Technologies, Inc., priority 1999, dated 2004).

Assay: Insulin oral delivery in rats, serum human insulin by ELISA
Settings: human insulin alone without delivery agent, previous experiments
Procedure: Oral dosing (PO) compositions of delivery agent compound and human zinc insulin (minimum 26 IU/mg available from Calbiochem—Novabiochem Corp, La Jolla, Calif.) were prepared in deionized water. […] The solution was vortexed, then heated (about 37° C.) and sonicated. The pH was adjusted to about 7 to 8.5 with NaOH or HCl.
The typical dosing and sampling protocols were as follows. […] A dosing group of five animals was administered one of the dosing solutions. […] The syringe was filled with dosing solution by drawing the solution through the catheter, which was then wiped dry. The catheter was placed down the esophagus leaving 1 cm of tubing past the incisors. The dosing solution was administered by pressing the syringe plunger.
Serum insulin levels were determined with an Insulin ELISA Test Kit (Kit # DSL-10-1600 from Diagnostic Systems Laboratories, Inc., Webster, Tex.), modifying the standard protocol in order to optimize the sensitivity and linear range of the standard curve for the volumes and concentrations of the samples used in the present protocol. […] The five values for each time point were averaged and the results plotted as serum insulin concentration versus time.

In the case of human insulin, the “levels of human insulin following oral dosing with human insulin alone” value is reported as “no measurable levels”.
